In ChEMBL document CHEMBL1127778, “Structure-activity relationship of novel distamycin a derivatives : synthesis and antitumor activity” (Bioorg Med Chem Lett, 1994):

System: L1210
Test: The activity in vitro on L1210 murine leukemia cells, activity expressed as IC50
Format: functional, cell-based, Mus musculus

## O=C(O)c1ccc(N(CCCl)CCCl)cc1
  IC50: 17 µg/mL (≈ 65 µM)

In brackets after ≈: the same amount, converted by molar mass.
